The test system of the assay is Trichoderma virens ATCC 9645. As to the kind of experiment: growth yield (OD600) relative to untreated control; higher = less growth inhibition. The note with it: compound concentration: 100 uM. The gist of the method:
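A biocide at 200 ng ml^−1 was co-applied to some wells, and library compounds were present in all test wells at 100 μM final. The wells held 100 μl of Trichoderma virens ATCC 9645 spores at 15,000 spores ml^−1 in potato dextrose broth, grown at 30 °C in 96-well plates, with OD600 read at 40 h and 72 h. Results are relative growth against the control without either agent, averaged across duplicate screens.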

± gives the standard error. This is a selection; strong and weak results do not stand in their true shares.

Compound `COc1cc(Br)c(C[N+]2(CCOCCC3CCC4CC3C4(C)C)CCOCC2)cc1OC` (configuration not stated) [Pinaverium bromide] yielded a growth yield (40 h) of 2.54 ± 0.95% and a growth yield (72 h) of 20.5 ± 14%.

Values taken from the supplement of paper PMC8007513.
